{"source": "paper PMC11678162", "about": "(Pharmaceutics, 2024)", "key": {"C. albicans ATCC 18804": {"system": "C. albicans ATCC 18804", "experiment": "Flow cytometry, propidium iodide uptake", "assay_type": "cell-based, Candida albicans", "settings": "1× MIC (0.39 μM), 2 h at 30 °C, 0.5× Sabouraud broth, 2 × 10^4 CFU/mL", "experimental": "Flow cytometry analysis was performed using a Novocyte 2060R flow cytometer (ACEA Biosciences Inc., San Diego, CA, USA), as described previously. C. albicans ATCC 18804 at a final concentration of 2 × 10^4 CFU/mL in 0.5× Sabouraud broth was used for analysis. […] Treated cells and untreated controls were precipitated by centrifugation at 1600× g for 10 min, resuspended in 0.3 mL of PBS, and stained for 20 min at room temperature in the dark with propidium iodide (Biotium, Fremont, CA, USA) at a concentration of 4 μg/mL. The cells after thermal treatment at 99 °C for 10 min were used as a control of dead cells. The obtained data were processed using NovoExpress Software v. 1.2.4 (ACEA Biosciences Inc., San Diego, CA, USA)."}, "[1]": {"system": "normal human cells (hemolytic activity)", "settings": "at high concentrations of >100 µM; cited from earlier work", "text": "Natural gomesin is a small, positively charged β-hairpin peptide consisting of 18 amino acid residues, including a pyroglutamic acid at the N-terminus, the C-terminal amide group, and four cysteine residues forming two disulfide bridges."}, "[2]": {"system": "clinical isolate of C. albicans", "settings": "murine model of candidiasis, compared to the control group; cited from earlier work", "text": "Displaying multivarious biological activities, including antibacterial activity, anticancer activity, and antiparasitic activity, gomesin is of the greatest interest as an antifungal drug candidate. […] In addition, an in vivo study of gomesin on a murine model of candidiasi ..."}}, "data": [{"smiles": "CC(C)C[C@@H]1NC(=O)[C@H](CCCNC(=N)N)NC(=O)[C@H](CCCNC(=N)N)NC(=O)[C@@H](NC(=O)[C@@H]2CCC(=O)N2)CSSC[C@@H](C(=O)N[C@@H](CCCNC(=N)N)C(=O)NCC(=O)N[C@@H](CCCNC(=N)N)C(=O)O)NC(=O)[C@H](Cc2ccc(O)cc2)NC(=O)[C@H]([C@@H](C)O)NC(=O)[C@H](C(C)C)NC(=O)[C@@H]2CSSC[C@H](NC1=O)C(=O)N[C@@H](Cc1ccc(O)cc1)C(=O)N[C@@H](CCCCN)C(=O)N[C@@H](CCC(N)=O)C(=O)N[C@@H](CCCNC(=N)N)C(=O)N2", "note": "[Gomesin]", "values": [{"measurement": "PI-stained cells (upper gate, FSC vs. PI plot)", "setting": "C. albicans ATCC 18804", "value": 86.6, "unit": "%"}, {"measurement": "hemolytic activity", "setting": "[1]", "value": "about 40%"}, {"measurement": "fungal burden (in words)", "setting": "[2]", "value": "effectively reduced fungal burden"}]}]}
